Read-outs that look alike come from different tables or passages of the source.

1 compound from patent publication US7591979B2 (priority 2003, dated 2009) can be followed below.

This assay deals with naturally-occurring algae from water samples of the Clinch River. As to conditions: 10 μM DCMU, 0° C.

Consider `CN(C)C(=O)Nc1ccc(Cl)c(Cl)c1`, for which the “Percentage (%) decrease in photochemical yield” value (shortened to “Percentage (%) decrease”) (2 min after exposure) is given as −8.87%, the “Percentage (%) decrease” value (10 min after exposure) is recorded as −19.43% and the “Percentage (%) decrease” value (15 min after exposure) is −22.83%.
